{"source": "ChEMBL document CHEMBL3763149", "about": "“A FRET-Based Assay for the Identification and Characterization of Cereblon Ligands” (J Med Chem, 2016)", "key": {"[1]": {"biological_target": "T1, Cereblon isoform 4 (Magnetospirillum gryphiswaldense, UniProt A4TVL0)", "T1 sequence (A4TVL0 whole entry)": "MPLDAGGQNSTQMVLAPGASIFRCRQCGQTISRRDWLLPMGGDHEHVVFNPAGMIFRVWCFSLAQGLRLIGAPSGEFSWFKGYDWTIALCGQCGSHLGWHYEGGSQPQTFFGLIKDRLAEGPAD", "assay": "Inhibition of MANT-uracil binding to wild type Magnetospirillum gryphiswaldense cereblon isoform 4 by FRET assay"}, "[2]": {"biological_target": "T2, Cereblon isoform 4 (Magnetospirillum gryphiswaldense, UniProt A4TVL0, Y101F)", "assay": "Inhibition of MANT-uracil binding to Magnetospirillum gryphiswaldense cereblon isoform 4 Y101F mutant by FRET assay"}, "[3]": {"biological_target": "T2, Cereblon isoform 4", "assay": "Inhibition of MANT-uracil binding to Magnetospirillum gryphiswaldense cereblon isoform 4 Y101F mutant by Cheng-Prusoff equation analysis"}}, "data": [{"smiles": "O=C1CCC(N2C(=O)c3ccccc3C2=O)C(=O)N1", "note": "(racemic) [THALIDOMIDE]", "values": [{"measurement": "IC50", "setting": "[1]", "result": 7.8, "unit": "µM"}, {"measurement": "IC50", "setting": "[2]", "result": 10.7, "unit": "µM"}, {"measurement": "Ki", "setting": "[3]", "result": 9.6, "unit": "µM"}]}]}
